Consider one compound from US20230055961A1, “PENTAFLUOROBENZENESULFONAMIDE DERIVATIVES AND USES THEREOF” (Dunad Therapeutics Ltd., priority 2019, published 2023).

By UniProt entry, the sequences of proteins in these tests, tags left out.
UniProt Q06187, whole entry, species assumed: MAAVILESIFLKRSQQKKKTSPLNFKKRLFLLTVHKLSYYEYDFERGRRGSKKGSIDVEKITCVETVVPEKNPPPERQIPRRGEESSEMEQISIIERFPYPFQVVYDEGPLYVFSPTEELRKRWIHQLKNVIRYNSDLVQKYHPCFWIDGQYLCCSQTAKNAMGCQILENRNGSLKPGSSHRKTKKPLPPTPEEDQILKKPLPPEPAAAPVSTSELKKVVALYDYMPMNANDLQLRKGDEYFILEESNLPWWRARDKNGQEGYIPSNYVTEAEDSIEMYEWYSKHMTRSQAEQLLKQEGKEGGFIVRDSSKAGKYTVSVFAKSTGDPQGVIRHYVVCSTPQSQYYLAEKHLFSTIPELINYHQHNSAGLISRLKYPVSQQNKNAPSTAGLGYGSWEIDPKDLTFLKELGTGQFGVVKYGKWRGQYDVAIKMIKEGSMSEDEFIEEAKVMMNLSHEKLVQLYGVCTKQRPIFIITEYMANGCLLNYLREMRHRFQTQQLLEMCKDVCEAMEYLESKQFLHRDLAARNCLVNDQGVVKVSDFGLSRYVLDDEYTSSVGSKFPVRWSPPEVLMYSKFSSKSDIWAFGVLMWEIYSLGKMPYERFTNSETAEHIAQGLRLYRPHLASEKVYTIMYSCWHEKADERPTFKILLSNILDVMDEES

This assay addresses BTK (Homo sapiens, UniProt Q06187). Briefly: In vitro BTK inhibition, biochemical IC50 (no preincubation). The settings on record: Table 8.

In general, IC50 refers to the concentration needed to halve the response being measured. Read a low IC50 as higher potency. In turn, `C=CC(=O)Nc1cccc(Nc2nc(Nc3ccc(OCCOC)cc3)ncc2F)c1` [Spebrutinib] gave an IC50 of 0.01 to 0.1 µM.
